The numbers were not newly measured in US20140193463A1, “PEPTIDE FOR INHIBITING DIPEPTIDYL-PEPTIDASE IV” (CHINA MEDICAL UNIVERSITY, priority 2013, published 2014), which cites them from elsewhere.

Sequences of proteins named here, by UniProt entry; tags and fusion partners are left off.
UniProt P27487, whole entry, species assumed: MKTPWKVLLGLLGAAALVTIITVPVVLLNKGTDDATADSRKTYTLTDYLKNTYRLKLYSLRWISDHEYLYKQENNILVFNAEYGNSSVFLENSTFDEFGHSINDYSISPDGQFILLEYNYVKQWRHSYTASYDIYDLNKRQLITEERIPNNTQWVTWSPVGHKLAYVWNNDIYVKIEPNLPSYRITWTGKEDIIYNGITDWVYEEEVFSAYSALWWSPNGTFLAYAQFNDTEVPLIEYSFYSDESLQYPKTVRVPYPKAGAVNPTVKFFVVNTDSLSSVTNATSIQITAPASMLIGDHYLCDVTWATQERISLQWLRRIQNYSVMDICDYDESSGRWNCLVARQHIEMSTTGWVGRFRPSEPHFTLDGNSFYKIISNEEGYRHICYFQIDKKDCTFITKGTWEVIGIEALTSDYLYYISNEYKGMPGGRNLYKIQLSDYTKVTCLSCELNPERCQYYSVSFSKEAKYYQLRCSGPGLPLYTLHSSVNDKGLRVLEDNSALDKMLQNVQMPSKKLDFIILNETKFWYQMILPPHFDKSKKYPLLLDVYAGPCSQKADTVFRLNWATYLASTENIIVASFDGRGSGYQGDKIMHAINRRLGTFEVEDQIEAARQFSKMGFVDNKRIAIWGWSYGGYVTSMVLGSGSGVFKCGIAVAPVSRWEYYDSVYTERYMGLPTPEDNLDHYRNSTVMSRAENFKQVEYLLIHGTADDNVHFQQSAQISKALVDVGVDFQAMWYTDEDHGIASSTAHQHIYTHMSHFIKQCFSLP

The target in the data set is DPP-IV (Homo sapiens, UniProt P27487). The note with it: cited from earlier work.

For the substance Val-Pro-Leu [Diprotin B], for the setting “isolated from culture filtrates of Bacillus cereus BMF673-RF1, related art”, the “IC50 values, inhibitory activity on DPP-IV” value is 5.5 µg/mL. For the setting “previous studies, read-out: IC50 values against DPP-IV”, the IC50 was 16.8 µM.
